Tests used:
[1] = molecular target: 5-hydroxytryptamine receptor 2A (Homo sapiens) (UniProt P28223)
[2] = organism: Homo sapiens; assay: Selectivity ratio of Ke(app) for adrenergic alpha1A receptor (unknown origin) to Ke(app) for human 5-HT2A receptor
Outline: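 Ratio of apparent Ke values from matched FLIPR calcium functional assays at human 5-HT2A and at α1A receptors. Compounds were screened at 10 μM. Ke was taken from the rightward EC50 shift of an 8-point half-log agonist curve (5-HT at 5-HT2A) with one antagonist concentration, Ke = [L]/(DR−1). Values are means of ≥2 triplicate experiments.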

Chains of the proteins cited; added tags and fusions are not shown.
UniProt P28223, whole entry: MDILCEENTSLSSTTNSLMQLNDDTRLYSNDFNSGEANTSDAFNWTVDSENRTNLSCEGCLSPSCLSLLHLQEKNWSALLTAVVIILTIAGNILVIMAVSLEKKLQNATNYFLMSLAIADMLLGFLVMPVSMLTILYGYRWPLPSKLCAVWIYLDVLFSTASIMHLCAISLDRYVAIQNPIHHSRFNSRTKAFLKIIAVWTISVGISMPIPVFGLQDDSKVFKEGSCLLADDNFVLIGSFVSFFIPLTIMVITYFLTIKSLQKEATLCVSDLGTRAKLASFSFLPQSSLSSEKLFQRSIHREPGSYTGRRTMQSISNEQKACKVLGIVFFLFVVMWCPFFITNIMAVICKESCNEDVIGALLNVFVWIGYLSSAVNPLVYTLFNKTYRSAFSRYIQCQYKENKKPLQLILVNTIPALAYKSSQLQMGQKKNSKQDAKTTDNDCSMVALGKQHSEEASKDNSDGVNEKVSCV

| Compound | Ke(app) [1] | Ratio Ke [2] |
| --- | --- | --- |
| COc1cc2c3c(c1OC)-c1cc4c(cc1CC3N(C)CC2)OCO4 (stereo not drawn) | 850 nM | – |
| CC#CCOc1c(OC)cc2c3c1-c1cc4c(cc1CC3N(C)CC2)OCO4 (stereo not drawn) | – | 0.2 |
| C/C=C/COc1c(OC)cc2c3c1-c1cc4c(cc1CC3N(C)CC2)OCO4 (stereo not drawn) | – | 2.7 |

Reference: ChEMBL document CHEMBL3632459, “Synthesis and evaluation of aporphine analogs containing C1 allyl isosteres at the h5-HT(2A) receptor” (Bioorg Med Chem Lett, 2015)
